From ChEMBL document CHEMBL1177640 (Bioorg Med Chem, 2010)

Experiment: Permeability in buffer of pH 7.4 by PAMPA
Type: ADME
Settings: read-out: permeability
Outline: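 Double-Sink PAMPA: DMSO stock diluted 200-fold into system solution buffer pH 7.4 in the donor plate, with acceptor sink buffer pH 7.4. Incubated 0.5 h at room temperature with stirring. Donor and acceptor concentrations measured by UV (230–500 nm), triplicates.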

NC(=O)N1c2ccccc2C=Cc2ccccc21 [CARBAMAZEPINE]
Papp: 19.9 ×10⁻⁶ cm/s
